Assay: Pharmacokinetics of MMMDPB and DPB after oral MMMDPB or NaMMMDPB and intravenous NaMMMDPB
Parameters: species or system Beagle dogs
Conditions: dog, in vivo, analyte DPB
Procedure: In accordance with the present invention, pharmacokinetic parameters were calculated using standard non-compartmental methods, as implemented in WinNonlin™ 4.0.1. The mean, standard deviation (SD) and percent coefficient (CV (%)) of variations were calculated for plasma concentrations of MMMDPB and DPB for each sampling time and for each treatment. The mean, SD and CV (%) were used to calculate the AUC0-t (µg.h/mL), Cmax (µg/ml) (the maximum observed concentration), Tmax (hours) (the time to reach that peak concentration) and Kel (the elimination rate constant) for each animal and each analyte.
Areas under the concentration-time curves (AUC) were determined with respect to each animal that received oral administration of either NaDPB, NaMMMDPB or their free acid counterparts. AUC0-t was calculated using the linear trapezoidal rule, which employs an approximate integration formula. The area of each trapezoid was calculated, and the sum of all the areas of all the trapezoids yielded an estimate of the true area under the curve. (See, Gibaldi et al. Pharmacokinetics. 2nd Ed. Marcel Dekker, Inc., 1982; Yeh et al., A comparison of numerical integrating algorithms by trapezoidal, lagrange, and spline approximations. J. Pharmacokinet Biopharm. 6: 79 (1978), the disclosure of which is herein incorporated by reference.) Cmax and Tmax were then determined for each concentration vs. time profile. Elimination rate constant (Kel) was calculated using regression analyses on the natural log (In) of plasma concentration values (y) versus time (x).
This study compared the pharmacokinetics of MMDPB and DPB after oral administrations of MMDPB (30 mg/kg) and sodium salt of MMMDPB (30 mg/kg) in dogs. Oral suspensions of MMMDPB and sodium salt of MMDPB were prepared by suspending either MMMDPB or sodium salt of MMMDPB in 2 % (w/v) aqueous carobxymethyl cellulose (CMC). […]
Blood samples were obtained pre-dose and 0.25, 0.5, 1, 2, 3, 4, 6, 9, 12, 15, 18, and 24 hours after dosing. […] MMMDPB and DPB were quantified in plasma using HPLC with Tandem Mass Spectrometry detection (LLOQ=0.25 µg/mL). […]

Compound	half-life (Oral, 30 mg/kg) [h]	half-life (iv, 15 mg/kg, IV infusion) [h]	half-life (po, 30 mg/kg) [h]
COCN1C(=O)NC(=O)C(c2ccccc2)(c2ccccc2)C1=O [MMMDPB, monomethoxymethyl-5,5-diphenyl barbituric acid]	4.59		
COCN1C(=O)NC(=O)C(c2ccccc2)(c2ccccc2)C1=O [NaMMMDPB, sodium monomethoxymethyl-5,5-diphenyt barbiturate]		2.26	3.15
